Compound activity: PubChem, National Center for Advancing Translational Sciences (NCATS)
miR-21 reporter = miR-21 reporter, rising signal; HeLa miR-21 FLuc reporter, luciferase, 48 h; Potency, µM (titrated, usually from 38.3 µM), for the others: at the top dose reporter change, positive = more light; 340,000 tested, under 10 active; AID 2288; active = well fitted rising curve with a large enough effect; inconclusive = small, poorly fitted or top-dose-only effect; inactive = no such curve, though single readings can be large or run the other way;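 also: % of control where 0% means no effect; miR-21 action dims this reporter so a rising signal means less miR-21 action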
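Using DMEM plus 10% FBS, HeLa miR-21-FLuc cells are incubated with test compounds (final up to about 40uM) for 48 hours; firefly luciferase signal is then imaged following reagent-mediated lysis.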
TrxR1 substrate = is turned over as a substrate by rat TrxR1; O89049; purified TrxR1 substrate turnover, NADPH consumption readout; Potency, µM (titrated, usually from 114 µM), without a hit: top-dose activity change, negative = substrate turnover; actives 0.01% (n = 390,000); AID 588456; note: potency is the fitted concentration of half-maximal effect; % is set by controls: 0 for no effect and ±100 for the full control effect; nearly all actives have a fitted effect of over 50% in size
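Rat TrxR1, dispensed at 90 nM, was prereduced with 400 uM NADPH (final) for 5 min at ~22 deg C, then incubated with compound 15 min before 400 uM selenite. A first-read NADPH fluorescence drop versus no-compound background flagged substrates.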
TrxR1 inh = inhibitors of rat thioredoxin reductase 1 | O89049 | actives 1% (n = 390,000) | recombinant rTrxR1, NADPH fluorescence consumption, selenite substrate | AID 588453 | Potency, µM (top dose mostly 114 µM), without a hit: top-dose activity change, negative = inhibition, hits mostly inhibitors; note: potency is the fitted concentration of half-maximal effect; % is set by controls: 0 for no effect and ±100 for the full control effect; nearly all actives have a fitted effect of over 65% in size
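Rat TrxR1 (90 nM in the dispensed reagent) was pre-reduced with 400 uM NADPH for 5 min at room temperature, then incubated with compound for 15 min. After 400 uM selenite was added, NADPH fluorescence (Ex 340/Em 450 nm) was followed for 8 min.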
ClpP mod = qHTS Assay for Activators of ClpP. actives 1.9% (n = 340,000). Potency, µM (series often up to 57.5 µM), inactives show top-dose activity change, negative = active. AID 651965, 2013. ATP-dependent Clp protease proteolytic subunit (Bacillus subtilis (strain 168)), P80244. purified B. subtilis ClpP, FRET peptide cleavage, 20 min; active = well fitted falling curve with a large enough effect; inconclusive = small, poorly fitted or top-dose-only effect; inactive = no such curve, though single readings can be large or run the other way; note: potency is the fitted concentration of half-maximal effect; the source files actives as falling curves though it sought activators and does not explain the sign; nearly all actives have a fitted effect of over 65% in size
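Buffer: 100 mM Tris/HCl pH8, 100 mM KCl, 0.05% low protease BSA, 2.5% glycerol, 0.01% Tween-20. ClpP 10 microg/mL final; 20 min RT; delta FRET normalized to ADEP and DMSO controls.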
Anesthetic bind = candidate novel general anesthetic via apoferritin binding; AID 485281; P02791; Potency, µM (doses to about 77.5 µM), without a hit: top-dose activity change, negative = displacement, usual class: inhibitors; actives 0.074% (n = 350,000); apoferritin/1-aminoanthracene competitive binding, fluorescence; note: potency is the fitted concentration of half-maximal effect; % is set by controls: 0 for no effect and ±100 for the full control effect; nearly all actives have a fitted effect of over 20% in size
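Horse-spleen apoferritin (10 uM) in 50% saturated 1-aminoanthracene in PBS was incubated 10 min at room temperature with compound. Fluorescence (ex 380, em 535 nm) was normalized to free and bound 1-AMA, with concentration-response fitted by a four-parameter Hill equation.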
* hit, by the source's call; [ ] = another dose, or the depositor's remark. This is a sample that favours compounds with a hit; in the whole collection about 2.5% have one here. Unless noted, calls come from the whole dose curve; as a rule, active = well fitted curve in the direction sought with a large enough effect; inconclusive = small, poorly fitted or top-dose-only effect, or another doubt; inactive = no such curve, though single readings can be large; an effect the other way counts as inactive or inconclusive.

Screening O=c1c2cc(NC(=S)N3CCC(N4CCCCC4)CC3)ccc2nc2n1CCCCC2 returned miR-21 reporter -1%, TrxR1 substrate 9%[57.1 µM], TrxR1 inh 15%[57.1 µM], ClpP mod 0% and Anesthetic bind -5%.
O=C(Nc1ccc2nc3n(c(=O)c2c1)CCCCC3)c1c(F)ccc([N+](=O)[O-])c1F was read as miR-21 reporter inconclusive, TrxR1 substrate -5%, TrxR1 inh 50µM* and Anesthetic bind -11%.
Screening Cc1ccc(-c2nn(-c3ccc(F)cc3F)c3c2cnc2c(F)cccc23)cc1 returned miR-21 reporter -10%, TrxR1 substrate -2%[57.1 µM], TrxR1 inh 1%[57.1 µM], ClpP mod -9% and Anesthetic bind 42%.
For COc1ccc(-c2ccc(C(=O)Nc3cccc(N(C)C)c3)c3occc23)c(C)c1 the results were ClpP mod 28µM*.
`COc1ccc(-c2ccc(C(=O)Nc3cccc(Oc4ccccc4)c3)c3occc23)c(C)c1` gave ClpP mod 5%.
For CN(C)c1cccc(NC(=O)c2cccc3c(-c4ccc(F)c(F)c4)coc23)c1 the results were ClpP mod 22µM*.
CN(C)CCNC(=O)c1cccc2c(-c3ccc(F)c(F)c3)coc12 was read as ClpP mod -6%.
For Cn1cc(-c2ccc(C(=O)Nc3cccc(Oc4ccccc4)c3)c3occc23)cn1 the results were ClpP mod 22µM*.
O=c1nc2n(CCO)c3ccccc3cc-2c(=O)[nH]1 was read as TrxR1 substrate 443%, TrxR1 inh -17% and ClpP mod 32µM*.
For COc1ccc(CC(=O)NCCS(=O)(=O)N2CCN(c3ccccc3F)CC2)cc1OC the results were miR-21 reporter 0%, TrxR1 substrate 5%[57.1 µM], TrxR1 inh 20%[57.1 µM], ClpP mod 0% and Anesthetic bind -9%.
`CC(C)Oc1ccc(CNC(=O)c2ccc(NC(=O)N3CC(C)Sc4ccccc43)cc2)cc1` (stereo not drawn) gave miR-21 reporter 4%, TrxR1 substrate 1%, TrxR1 inh 16%, ClpP mod -2% and Anesthetic bind 2%.
`CC(C)Oc1ccc(CNC(=O)c2cc3cccc4c3n2CC(C)S4)cc1` (stereo not drawn) gave miR-21 reporter 11%, TrxR1 substrate 32%, TrxR1 inh 46%, ClpP mod 32µM* and Anesthetic bind 102%.
`COc1cccc(CNC(=O)CCC(=O)N2CC(C)Sc3ccccc32)c1` (stereo not drawn) gave miR-21 reporter 3%, TrxR1 substrate -6%, TrxR1 inh 6%, ClpP mod -1% and Anesthetic bind 0%.
For Cc1cc(C(=O)NCc2ccc(Cl)cc2)n(-c2ccccc2)n1 the results were miR-21 reporter 6%, TrxR1 substrate 0%, TrxR1 inh 19%, ClpP mod -4% and Anesthetic bind -1%.
COc1ccc(CNC(=O)c2cc3cccc4c3n2CC(C)S4)cc1 (stereo not drawn) was read as miR-21 reporter 0%, TrxR1 substrate 24%, TrxR1 inh 24%, ClpP mod 32µM* and Anesthetic bind 56%.
`O=C(NCc1ccc(Cl)cc1)c1cc2cccc3c2n1CCS3` gave miR-21 reporter 17%, TrxR1 substrate 25%, TrxR1 inh 29%, ClpP mod 22µM* and Anesthetic bind 76%.
`O/N=C/c1ccc2cccc(OCc3ccccc3)c2n1` gave miR-21 reporter -2%, TrxR1 substrate 17%, TrxR1 inh 12%, ClpP mod 4% and Anesthetic bind -9%.
For COc1ccc(C(=O)N/N=C/c2ccc3cccc(OCc4ccccc4)c3n2)cc1 the results were miR-21 reporter -3%, TrxR1 substrate 83%[57.1 µM], TrxR1 inh 42%[57.1 µM], ClpP mod 3.2µM* and Anesthetic bind -8%.
`O=C(N/N=C/c1ccc2cccc(OCc3ccccc3)c2n1)c1ccc(Br)cc1` gave miR-21 reporter 0%, TrxR1 substrate 64%[57.1 µM], TrxR1 inh 47%[57.1 µM], ClpP mod 4µM* and Anesthetic bind -9%.

Arranged by length of the SMILES (ascending): some entries from above
`O/N=C/c1ccc2cccc(OCc3ccccc3)c2n1` gave miR-21 reporter -2%, TrxR1 substrate 17%, TrxR1 inh 12%, ClpP mod 4% and Anesthetic bind -9%.
COc1ccc(CNC(=O)c2cc3cccc4c3n2CC(C)S4)cc1 (stereo not drawn) was read as miR-21 reporter 0%, TrxR1 substrate 24%, TrxR1 inh 24%, ClpP mod 32µM* and Anesthetic bind 56%.
`O=C(N/N=C/c1ccc2cccc(OCc3ccccc3)c2n1)c1ccc(Br)cc1` gave miR-21 reporter 0%, TrxR1 substrate 64%[57.1 µM], TrxR1 inh 47%[57.1 µM], ClpP mod 4µM* and Anesthetic bind -9%.
